This is an account of results in ChEMBL document CHEMBL1149999, “Synthesis and pharmacological activity of a macrocyclic benzamide” (Bioorg Med Chem Lett, 1995).

Protein sequences, listed by entry. Tags and fused reporters are not part of them.
UniProt P61169, whole entry: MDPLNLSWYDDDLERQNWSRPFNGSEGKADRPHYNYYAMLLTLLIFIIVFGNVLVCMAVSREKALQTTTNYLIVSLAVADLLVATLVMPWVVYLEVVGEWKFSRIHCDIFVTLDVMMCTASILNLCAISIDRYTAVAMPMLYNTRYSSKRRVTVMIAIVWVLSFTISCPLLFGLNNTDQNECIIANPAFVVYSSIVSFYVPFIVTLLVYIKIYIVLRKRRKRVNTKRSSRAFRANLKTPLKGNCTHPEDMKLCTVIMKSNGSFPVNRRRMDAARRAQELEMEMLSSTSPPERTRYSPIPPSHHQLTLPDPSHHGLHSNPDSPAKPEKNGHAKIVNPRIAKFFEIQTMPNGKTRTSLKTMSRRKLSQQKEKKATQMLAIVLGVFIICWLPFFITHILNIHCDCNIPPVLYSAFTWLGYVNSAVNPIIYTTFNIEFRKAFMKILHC

This assay deals with D(2) dopamine receptor (Rattus norvegicus, UniProt P61169). The assay is described as follows: Binding affinity against Dopamine receptor D2 using [3H]spiperone as radioligand in rat striatum. It is filed as tissue-based.

Broadly, the Ki is a measure of affinity in units of concentration, obtained from inhibition or displacement. A lower Ki goes with a stronger hold on the target.

On to `CCN(CC)CCNC(=O)c1cc(Cl)c(N)cc1OC` [METOCLOPRAMIDE], for which the Ki turned out to be 285 nM.
